In PMC12102759 (Protein Science : A Publication of the Protein Society, 2025):

Tested on: AP2M1 MU
Assay type: binding, human

Row | Sequence | PSSM value of the substitution (DMS by phage display)
1 | QVVSDIDYVPLKSATA I6R (QVVSDRDYVPLKSATA) | 0
2 | QVVSDIDYVPLKSATA I6S (QVVSDSDYVPLKSATA) | 0.0001333
3 | QVVSDIDYVPLKSATA I6T (QVVSDTDYVPLKSATA) | 0
4 | QVVSDIDYVPLKSATA I6V (QVVSDVDYVPLKSATA) | 0.0007207
5 | QVVSDIDYVPLKSATA I6W (QVVSDWDYVPLKSATA) | 0.0005519
6 | QVVSDIDYVPLKSATA I6Y (QVVSDYDYVPLKSATA) | 0.9949
7 | QVVSDIDYVPLKSATA K12A (QVVSDIDYVPLASATA) | 0.0001947
8 | QVVSDIDYVPLKSATA K12D (QVVSDIDYVPLDSATA) | 0
9 | QVVSDIDYVPLKSATA K12E (QVVSDIDYVPLESATA) | 0.0286
10 | QVVSDIDYVPLKSATA K12F (QVVSDIDYVPLFSATA) | 0.001392
11 | QVVSDIDYVPLKSATA K12G (QVVSDIDYVPLGSATA) | 0.0008504
12 | QVVSDIDYVPLKSATA K12H (QVVSDIDYVPLHSATA) | 0.09002
13 | QVVSDIDYVPLKSATA K12I (QVVSDIDYVPLISATA) | 9.01e-5
14 | QVVSDIDYVPLKSATA K12K | 0.002281
15 | QVVSDIDYVPLKSATA K12L (QVVSDIDYVPLLSATA) | 0.0001065
16 | QVVSDIDYVPLKSATA K12M (QVVSDIDYVPLMSATA) | 0.03934
17 | QVVSDIDYVPLKSATA K12N (QVVSDIDYVPLNSATA) | 0.01307
18 | QVVSDIDYVPLKSATA K12P (QVVSDIDYVPLPSATA) | 0.001923
19 | QVVSDIDYVPLKSATA K12Q (QVVSDIDYVPLQSATA) | 0.0001065
20 | QVVSDIDYVPLKSATA K12R (QVVSDIDYVPLRSATA) | 0
21 | QVVSDIDYVPLKSATA K12S (QVVSDIDYVPLSSATA) | 0.7818
22 | QVVSDIDYVPLKSATA K12T (QVVSDIDYVPLTSATA) | 0.03207

Row | Sequence | PSSM value of the substitution (DMS by phage display)
23 | QVVSDIDYVPLKSATA K12V (QVVSDIDYVPLVSATA) | 0.0005152
24 | QVVSDIDYVPLKSATA K12W (QVVSDIDYVPLWSATA) | 0.000213
25 | QVVSDIDYVPLKSATA K12Y (QVVSDIDYVPLYSATA) | 0.007432
26 | QVVSDIDYVPLKSATA L11A (QVVSDIDYVPAKSATA) | 0
27 | QVVSDIDYVPLKSATA L11D (QVVSDIDYVPDKSATA) | 0
28 | QVVSDIDYVPLKSATA L11E (QVVSDIDYVPEKSATA) | 0
29 | QVVSDIDYVPLKSATA L11F (QVVSDIDYVPFKSATA) | 0.02689
30 | QVVSDIDYVPLKSATA L11G (QVVSDIDYVPGKSATA) | 0
31 | QVVSDIDYVPLKSATA L11H (QVVSDIDYVPHKSATA) | 0
32 | QVVSDIDYVPLKSATA L11I (QVVSDIDYVPIKSATA) | 0.2926
33 | QVVSDIDYVPLKSATA L11K (QVVSDIDYVPKKSATA) | 0
34 | QVVSDIDYVPLKSATA L11L | 0.6805
35 | QVVSDIDYVPLKSATA L11M (QVVSDIDYVPMKSATA) | 0
36 | QVVSDIDYVPLKSATA L11N (QVVSDIDYVPNKSATA) | 0
37 | QVVSDIDYVPLKSATA L11P (QVVSDIDYVPPKSATA) | 0
38 | QVVSDIDYVPLKSATA L11Q (QVVSDIDYVPQKSATA) | 0
39 | QVVSDIDYVPLKSATA L11R (QVVSDIDYVPRKSATA) | 0
40 | QVVSDIDYVPLKSATA L11S (QVVSDIDYVPSKSATA) | 0
41 | QVVSDIDYVPLKSATA L11T (QVVSDIDYVPTKSATA) | 0
42 | QVVSDIDYVPLKSATA L11V (QVVSDIDYVPVKSATA) | 0
43 | QVVSDIDYVPLKSATA L11W (QVVSDIDYVPWKSATA) | 0
44 | QVVSDIDYVPLKSATA L11Y (QVVSDIDYVPYKSATA) | 0

Row | Sequence | PSSM value of the substitution (DMS by phage display)
45 | QVVSDIDYVPLKSATA P10A (QVVSDIDYVALKSATA) | 0
46 | QVVSDIDYVPLKSATA P10D (QVVSDIDYVDLKSATA) | 0
47 | QVVSDIDYVPLKSATA P10E (QVVSDIDYVELKSATA) | 0
48 | QVVSDIDYVPLKSATA P10F (QVVSDIDYVFLKSATA) | 0
49 | QVVSDIDYVPLKSATA P10G (QVVSDIDYVGLKSATA) | 0
50 | QVVSDIDYVPLKSATA P10H (QVVSDIDYVHLKSATA) | 0
51 | QVVSDIDYVPLKSATA P10I (QVVSDIDYVILKSATA) | 0.04265
52 | QVVSDIDYVPLKSATA P10K (QVVSDIDYVKLKSATA) | 0
53 | QVVSDIDYVPLKSATA P10L (QVVSDIDYVLLKSATA) | 0.27
54 | QVVSDIDYVPLKSATA P10M (QVVSDIDYVMLKSATA) | 0.01637
55 | QVVSDIDYVPLKSATA P10N (QVVSDIDYVNLKSATA) | 0
56 | QVVSDIDYVPLKSATA P10P | 0.5237
57 | QVVSDIDYVPLKSATA P10Q (QVVSDIDYVQLKSATA) | 0
58 | QVVSDIDYVPLKSATA P10R (QVVSDIDYVRLKSATA) | 0
59 | QVVSDIDYVPLKSATA P10S (QVVSDIDYVSLKSATA) | 0.02069
60 | QVVSDIDYVPLKSATA P10T (QVVSDIDYVTLKSATA) | 0
61 | QVVSDIDYVPLKSATA P10V (QVVSDIDYVVLKSATA) | 0
62 | QVVSDIDYVPLKSATA P10W (QVVSDIDYVWLKSATA) | 0.1266
63 | QVVSDIDYVPLKSATA P10Y (QVVSDIDYVYLKSATA) | 0
64 | QVVSDIDYVPLKSATA S4A (QVVADIDYVPLKSATA) | 0
65 | QVVSDIDYVPLKSATA S4D (QVVDDIDYVPLKSATA) | 0
66 | QVVSDIDYVPLKSATA S4E (QVVEDIDYVPLKSATA) | 0

Row | Sequence | PSSM value of the substitution (DMS by phage display)
67 | QVVSDIDYVPLKSATA S4F (QVVFDIDYVPLKSATA) | 0.0002135
68 | QVVSDIDYVPLKSATA S4G (QVVGDIDYVPLKSATA) | 0.3772
69 | QVVSDIDYVPLKSATA S4H (QVVHDIDYVPLKSATA) | 0.0002135
70 | QVVSDIDYVPLKSATA S4I (QVVIDIDYVPLKSATA) | 0
71 | QVVSDIDYVPLKSATA S4K (QVVKDIDYVPLKSATA) | 0
72 | QVVSDIDYVPLKSATA S4L (QVVLDIDYVPLKSATA) | 0
73 | QVVSDIDYVPLKSATA S4M (QVVMDIDYVPLKSATA) | 0
74 | QVVSDIDYVPLKSATA S4N (QVVNDIDYVPLKSATA) | 0.0706
75 | QVVSDIDYVPLKSATA S4P (QVVPDIDYVPLKSATA) | 0.01428
76 | QVVSDIDYVPLKSATA S4Q (QVVQDIDYVPLKSATA) | 0
77 | QVVSDIDYVPLKSATA S4R (QVVRDIDYVPLKSATA) | 0.0002135
78 | QVVSDIDYVPLKSATA S4S | 0.01383
79 | QVVSDIDYVPLKSATA S4T (QVVTDIDYVPLKSATA) | 0
80 | QVVSDIDYVPLKSATA S4V (QVVVDIDYVPLKSATA) | 0
81 | QVVSDIDYVPLKSATA S4W (QVVWDIDYVPLKSATA) | 0
82 | QVVSDIDYVPLKSATA S4Y (QVVYDIDYVPLKSATA) | 0.5235
83 | QVVSDIDYVPLKSATA S13A (QVVSDIDYVPLKAATA) | 6.609e-5
84 | QVVSDIDYVPLKSATA S13D (QVVSDIDYVPLKDATA) | 0.9138
85 | QVVSDIDYVPLKSATA S13E (QVVSDIDYVPLKEATA) | 0.0004072
86 | QVVSDIDYVPLKSATA S13F (QVVSDIDYVPLKFATA) | 0.01018
